Target: CXCR4 (Homo sapiens (Human), UniProt P61073)
Experiment: Cellular impedance change induced by SDF-1a (cellular dielectric spectroscopy)
Format: cell-based
Conditions: read-out: Antagonist IC50; HeLa cells, endogenous CXCR4, EC50 concentration of SDF-1a, 30 minutes

By UniProt entry, the sequences of proteins in these tests, tags left out.
UniProt P61073, whole entry: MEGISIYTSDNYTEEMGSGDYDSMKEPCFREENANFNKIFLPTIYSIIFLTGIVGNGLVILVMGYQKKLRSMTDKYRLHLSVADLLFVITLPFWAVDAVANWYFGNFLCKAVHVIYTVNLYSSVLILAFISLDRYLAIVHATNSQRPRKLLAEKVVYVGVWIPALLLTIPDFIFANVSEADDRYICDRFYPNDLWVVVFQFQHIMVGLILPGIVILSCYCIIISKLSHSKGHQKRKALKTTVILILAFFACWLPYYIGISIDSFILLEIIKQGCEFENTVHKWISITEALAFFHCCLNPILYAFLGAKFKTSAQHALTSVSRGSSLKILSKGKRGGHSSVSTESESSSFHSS

NCCCCN(Cc1nccc2c3ccccc3n(CC(=O)O)c12)[C@H]1CCCc2cccnc21 was tested, and the IC50 was 8.1 nM.
